Experimental data published in patent publication US20230407373A1 (priority 2020, published 2023).
Where two headings read alike, the source gives them in different places.

Test system: HCoV-OC43 gRNA and sgRNA
Format: binding
Settings: for target (unweighted spectral count): OC43 Probe II, infected cells

Substance	target (unweighted spectral count, OC43 Probe II capture) (36 hpi, type n_36_v, tested against no-probe control, FDR<10%)	target (unweighted spectral count, OC43 Probe II) (type n_48_v, 48 hpi, OC43 Probe II capture on infected cells)	background (unweighted spectral count, no-probe control) (type n_48_v, 48 hpi, no-probe control on infected cells)	target (unweighted spectral count) (12 hpi (type n_12_v), tested against no-probe control)	target (unweighted spectral count) (24 hpi (type n_24_v), tested against no-probe control)
PRRC2C	6	5	1	–	–
RPA1	–	–	–	12	5
